In one test the target is rh-AChE (Homo sapiens, UniProt P22303). Kind of test: biochemical.
The next test has as its target rh-BuChE (Homo sapiens, UniProt P06276). The experiment in a line: IC50 rh-BuChE. Type of test: biochemical.

By UniProt entry, the sequences of proteins in these tests, tags left out. Residues count along the entry.
UniProt P22303, 32-614: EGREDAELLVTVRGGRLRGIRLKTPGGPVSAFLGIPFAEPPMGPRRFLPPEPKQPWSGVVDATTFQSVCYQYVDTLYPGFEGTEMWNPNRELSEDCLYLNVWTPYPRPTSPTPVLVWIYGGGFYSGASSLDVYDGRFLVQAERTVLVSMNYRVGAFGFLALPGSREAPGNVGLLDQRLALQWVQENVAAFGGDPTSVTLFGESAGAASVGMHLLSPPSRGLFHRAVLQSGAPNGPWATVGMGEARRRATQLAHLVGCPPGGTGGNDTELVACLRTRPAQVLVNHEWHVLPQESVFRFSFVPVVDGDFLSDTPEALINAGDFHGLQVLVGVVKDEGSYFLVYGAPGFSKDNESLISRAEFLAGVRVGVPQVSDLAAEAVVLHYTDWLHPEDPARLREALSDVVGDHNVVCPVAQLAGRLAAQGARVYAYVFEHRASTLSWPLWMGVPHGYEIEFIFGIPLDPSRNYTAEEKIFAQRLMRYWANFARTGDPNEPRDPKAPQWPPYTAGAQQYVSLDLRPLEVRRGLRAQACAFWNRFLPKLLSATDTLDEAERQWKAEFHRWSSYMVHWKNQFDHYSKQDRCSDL
UniProt P06276, 29-602: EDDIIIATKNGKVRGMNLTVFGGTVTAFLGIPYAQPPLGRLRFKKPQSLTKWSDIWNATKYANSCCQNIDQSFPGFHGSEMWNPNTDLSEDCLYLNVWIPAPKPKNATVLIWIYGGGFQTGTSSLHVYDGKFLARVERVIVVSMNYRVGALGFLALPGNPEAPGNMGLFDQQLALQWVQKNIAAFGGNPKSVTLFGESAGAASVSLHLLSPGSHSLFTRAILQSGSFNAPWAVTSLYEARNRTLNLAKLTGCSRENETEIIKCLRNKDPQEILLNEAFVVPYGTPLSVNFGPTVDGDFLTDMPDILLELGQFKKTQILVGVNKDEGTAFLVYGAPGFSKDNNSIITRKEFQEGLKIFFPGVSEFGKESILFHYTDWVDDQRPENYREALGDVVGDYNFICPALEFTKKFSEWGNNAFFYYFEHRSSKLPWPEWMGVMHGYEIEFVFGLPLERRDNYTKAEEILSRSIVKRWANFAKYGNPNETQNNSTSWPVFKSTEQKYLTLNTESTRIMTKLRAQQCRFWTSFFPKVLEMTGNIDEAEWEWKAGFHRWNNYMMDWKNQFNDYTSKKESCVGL

For `NCCC1=CC2Cc3nc4cc(Cl)ccc4c(N)c3C(C1)C2` (centres unmarked) [HUP 24, 9-(2-Aminoethyl)-3-chloro-6,7,10,11-tetrahydro-7,11-methanocycloocta[b]quinolin-12-amine Ditrifluoroacetic Acid], the IC50 against rh-AChE was 244 ± 62 nM; on rh-BuChE it was 991 nM.

The values are drawn from patent US9040506B2, “7,11-methanocycloocta [B] quinoline derivative as highly functionalizable acetylcholinesterase inhibitors” (priority 2010, dated 2015).
